Protein sequences, listed by entry. Tags and fused reporters are not part of them.
Importin subunit beta-1 (Homo sapiens), Q14974, UniProt Q14974, whole entry, looked up: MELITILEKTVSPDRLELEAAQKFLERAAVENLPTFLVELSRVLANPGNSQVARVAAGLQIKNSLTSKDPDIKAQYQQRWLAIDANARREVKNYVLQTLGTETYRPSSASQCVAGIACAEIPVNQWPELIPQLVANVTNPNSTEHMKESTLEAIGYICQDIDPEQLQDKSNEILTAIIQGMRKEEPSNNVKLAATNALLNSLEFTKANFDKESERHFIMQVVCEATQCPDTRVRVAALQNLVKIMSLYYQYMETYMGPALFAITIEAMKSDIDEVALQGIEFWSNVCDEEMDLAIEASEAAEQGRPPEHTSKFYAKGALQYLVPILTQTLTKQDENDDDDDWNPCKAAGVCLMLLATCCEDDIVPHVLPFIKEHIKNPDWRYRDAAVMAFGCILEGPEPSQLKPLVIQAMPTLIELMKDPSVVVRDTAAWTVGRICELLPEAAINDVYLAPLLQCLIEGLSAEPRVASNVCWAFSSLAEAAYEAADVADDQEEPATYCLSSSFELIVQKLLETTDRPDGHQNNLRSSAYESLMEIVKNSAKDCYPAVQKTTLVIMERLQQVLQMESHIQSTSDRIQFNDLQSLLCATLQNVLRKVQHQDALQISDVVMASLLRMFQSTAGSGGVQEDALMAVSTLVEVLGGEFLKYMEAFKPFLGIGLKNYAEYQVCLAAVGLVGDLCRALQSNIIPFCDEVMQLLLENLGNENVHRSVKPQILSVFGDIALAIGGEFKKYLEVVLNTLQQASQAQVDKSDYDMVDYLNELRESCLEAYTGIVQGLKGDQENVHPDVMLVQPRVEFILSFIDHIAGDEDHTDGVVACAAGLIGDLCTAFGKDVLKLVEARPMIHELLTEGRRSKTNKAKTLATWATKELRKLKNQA

# Source: PubChem BioAssay (National Center for Advancing Translational Sciences (NCATS))
# A selection: hits, their analogues and other compounds. The true share with any hit is near 0.44%.
# Lamin A splicing – qHTS Assay for Modulators of Lamin A Splicing | 0.01% of 200,000 active | AID 1487, 2009 | Potency, µM (highest dose often 46.1 µM), inactives show top-dose ratio change, negative = inhibition, usual class: inhibitors | HeLa LMNA splicing GFP/RFP minigene ratio, 48 h; active means well fitted inhibition curve with a large enough effect in the signal ratio, with a control signal flat, not every such curve was filed as active; inconclusive means small, poorly fitted or top-dose-only effect, or effect the other way, or a change in a side signal; the % refers to the signal ratio; further: on the % scale 0 is the no-effect control and ±100 the full control effect
#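 S3 HeLa stable clones carrying a lamin A-EGFP splicing minigene plus DsRed2 were seeded at 600 cells/well in Opti-MEM with 2% FBS, pin-dosed and incubated 48 h at 37°C. Acumen cytometry (488 nm) gave the GFP/RFP total-intensity ratio.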
# BCR signal inh – qHTS Assay to Find Inhibitors of Chronic Active B-Cell Receptor Signaling. ABC-DLBCL IkBa-CBG/CBR reporter, luminescence ratio, 4 h. Potency, µM (top dose mostly 46.1 µM), for the others: at the top dose activity change, negative = inhibition, actives largely listed as inhibitors. 0.05% of 340,000 active; active means well fitted inhibition curve with a large enough effect in the signal ratio, with a control signal flat, not every such curve was filed as active; inconclusive means small, poorly fitted or top-dose-only effect, or effect the other way, or a change in a side signal; the % refers to the signal ratio;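 further: plate controls were basal doxycycline-induced cells for no effect and cells given 10 µM MG132 for full effect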
#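 Compounds up to 46 uM were incubated four hours with TMD8 cells whose green CBG68 luciferase is fused to IkappaBalpha; red CBR luminescence normalised the signal, and concentration-effect curves were fitted to fusion, red and ratio data.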
# Rango dissoc inh – qHTS Assay for Inhibitors of RanGTP induced Rango (Ran-regulated importin-beta cargo) - Importin beta complex dissociation; Snurportin-1 (Homo sapiens) + GTP-binding nuclear protein Ran (Homo sapiens) + Importin …; Biochemical FRET Rango-importin beta, RanGTP-induced dissociation; Potency, µM (top dose mostly 46.1 µM), inactives show at the top dose activity change, negative = inhibition; 0.071% of 340,000 active; further: % of control where 0% means no effect; nearly all actives have a fitted effect of over 45% in size
#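 Compounds preincubate 5 min with complex of recombinant Rango and importin beta in PBS with 1 mM DTT. Ran (0.6 uM) loaded with 2 mM GTP plus 0.2 uM RCC1 starts dissociation; FRET is recorded 45 min later.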
# KinaseGlo FLuc – Counterscreen for Luciferase (Kinase-Glo TM) Inhibition; Luciferin 4-monooxygenase (Photuris pensylvanica), Q27757; Kinase-Glo luciferase, ATP luminescence, 8 min; Potency, µM (highest dose often 38.3 µM), without a hit: top-dose activity change, negative = inhibition, hits mostly inhibitors; 0.28% of 200,000 active; active means well fitted curve in the direction sought with a large enough effect; inconclusive means small, poorly fitted or top-dose-only effect, or another doubt; inactive means no such curve, though single readings can be large; an effect the other way counts as inactive or inconclusive; further: on the % scale 0 is the no-effect control and ±100 the full control effect; nearly all actives have a fitted effect of over 60% in size
#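 Compounds were added to a substrate mix at pH 7.2 (50 mM imidazole, 10 uM ATP, within the enzyme's linear range), followed by Kinase-Glo detection reagent; luminescence was measured after 8 minutes at ambient temperature.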
# Rango-impB inh – qHTS Assay for Inhibitors of Rango (Ran-regulated importin-beta cargo) - Importin beta complex formation. Importin subunit beta-1 (Homo sapiens), Q14974. Rango CFP/YFP FRET sensor + importin beta, 45 min. Potency, µM (doses to about 92.2 µM), for the others: at the highest dose inhibition of complex formation. 0.031% of 340,000 active. AID 540263, 2011;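 further: 0% = DMSO wells and 100% = buffer wells lacking importin beta; nearly all actives have a fitted effect of over 15% in size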
#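 FRET biosensor Rango (snurportin 1 IBB between N-terminal EYFP and C-terminal Cerulean), 50 nM in PBS/1 mM DTT/0.02% Tween-20/0.1% BSA, preincubated 5 min RT with compound; 0.125 microM importin beta added, 45 min RT, CFP/YFP FRET ratio read.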
# Tb PFK inh-1 – qHTS Assay to Find Inhibitors of T. brucei phosphofructokinase; ATP-dependent 6-phosphofructokinase (Trypanosoma brucei brucei), O15648; T. brucei PFK, ADP-Glo luminescence; Potency, µM (highest dose often 57.5 µM), inactives show top-dose activity, negative = inhibition, actives largely listed as inhibitors; 0.17% of 330,000 active; active means well fitted curve in the direction sought with a large enough effect; inconclusive means small, poorly fitted or top-dose-only effect, or another doubt; inactive means no such curve, though single readings can be large; an effect the other way counts as inactive or inconclusive;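 further: 0% = uninhibited 1x PFK enzyme wells and -100% = no-enzyme wells; nearly all actives have a fitted effect of over 60% in size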
#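 Luminescent ADP detection (ADP-Glo, two-step: ATP depletion then ADP-to-ATP conversion for luciferase) reported PFK activity after 45 min room-temperature reaction of 1.25 nM enzyme with 0.5 mM F6P and 0.1 mM ATP at pH 8.0.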
# TbPFK ATP – Tb PFK orthogonal confirmatory assay using ATP depletion (Kinase-Glo Plus) as an alternative measure of Tb PFK activity: Hit Validation. shares compounds with Tb PFK inh-1. 47% of 1,100 active. Tb PFK enzyme, ATP depletion, Kinase-Glo Plus luminescence. AID 504636, 2011. Potency, µM (titrated, usually from 57.5 µM), inactives show at the top dose inhibition; further: nearly all actives have a fitted effect of over 60% in size
# Tb PFK inh-2 – Inhibitors of T. brucei phosphofructokinase: Hit Validation; purified T. brucei PFK, ADP-Glo luminescence, 45 min; 41% of 1,100 active; shares compounds with Tb PFK inh-1; Potency, µM (titrated, usually from 57.5 µM), inactives show top-dose activity change, negative = inhibition, usual class: inhibitors; active means well fitted curve in the direction sought with a large enough effect; inconclusive means small, poorly fitted or top-dose-only effect, or another doubt; inactive means no such curve, though single readings can be large; an effect the other way counts as inactive or inconclusive;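 further: plate controls were full PFK enzyme control for no effect and no enzyme control for full effect; nearly all actives have a fitted effect of over 60% in size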
# Numbers without * were called inactive; u = inconclusive; x = no result given; [ ] = dose if it differs, or a comment. Unless noted, the call rests on the fitted dose curve. Potency means the concentration at half of the fitted maximal effect.
SMILES,Lamin A splicing,BCR signal inh,Rango dissoc inh,KinaseGlo FLuc,Rango-impB inh,Tb PFK inh-1,others
O=c1c2ccccc2[se]n1-c1ccccc1,u,u,7%,10µM*,0%,4.8µM*,
O=c1c2ccccc2nc(-c2ccccc2)n1-c1ccccc1,x,13%,12%,x,-3%,1%,
CC(=O)Nc1ccccc1C(=O)OCC(=O)c1ccc2ccccc2c1,-8%,1%,-12%,-1%,-2%,3%,
Nc1ccccc1C(=O)OCC(=O)c1ccc2c(c1)OCCO2,4%[46 µM],u,-12%,11µM*,-1%,-26%,
C/C(=N\NC(=O)c1ccncc1)c1c(O)n(Cc2ccccc2)c(=O)[nH]c1=O,x,-7%,u,x,u,-12%,
CS(=O)(=O)c1ccc(C(=O)N2CCC(C(=O)O)(c3ccccc3)CC2)cc1,x,1%,13%,x,-2%,-1%,
CN1CCc2nc(SCc3cccc(Br)c3)c(C#N)cc2C1,x,u,16µM*,x,u,0%,
COC(=O)C1=CO[C@@H](C)[C@@H]2CN3CCc4c([nH]c5cc(OC)ccc45)[C@@H]3C[C@H]12,x,x,x,-4%,x,x,
COC(=O)[C@H]1[C@H]2C[C@@H]3c4[nH]c5cc(OC)ccc5c4CCN3C[C@H]2C[C@@H](OC(=O)/C=C/c2cc(OC)c(OC)c(OC)c2)[C@@H]1OC,x,-6%,5.8µM*,x,u,-4%,
C=CCN1C(=O)/C(=C\c2ccc(N3CCOCC3)o2)C(=O)NC1=S,13%,u,7%,-10%,65µM*,2%,
O=C1NC(=O)N(Cc2ccco2)C(=O)/C1=C/C=C/c1ccco1,x,0%,u,x,u,30µM*,
Cc1ccc(-n2sc3ccccc3c2=O)cc1,-19%,u,5%,-13%,0%,9.5µM*,
Cc1ccc(N2C(=O)/C(=C/c3ccc(CN(CCC#N)S(C)(=O)=O)o3)C(=O)NC2=S)cc1C,8%,0%,x,-5%,x,-11%,
Cc1cccc(N2C(=O)/C(=C/c3ccc(CN(CCC#N)S(C)(=O)=O)o3)C(=O)NC2=S)c1,-3%,13%,23µM*,0%,u,1%,
O=c1[nH]c(=S)[nH]c(O)c1C(c1ccccn1)c1c(O)[nH]c(=S)[nH]c1=O,x,1%,-20%,-2%,1%,-11%,
Cc1ccc(C(=O)/C=C/Nc2ccccc2C(N)=O)cc1,-1%,u,u,11µM*,u,-6%,
C[N+]1(C)CCc2cc3c(cc2[C@H]1[C@@H]1OC(=O)c2c1ccc1c2OCO1)OCO3,-1%,2%,1%,-12%,u,-1%,
O=[N+]([O-])c1ccc2c(c1)C(c1ccccc1)=NCCN2,x,u,-5%,x,-1%,0%,
N#Cc1c(Cl)nc(Cl)c2c1CCN(Cc1ccccc1)C2,u,u,5.2µM*[inhibitor],1%,u,3%,
CN(C)c1ccc(/C=C/C=C2/C(=O)NC(=O)N(c3ccccc3)C2=O)cc1,u,16%,-5%,14µM*,1%,u,

# Next part; it opens with the 5 that closed the last part.
SMILES,Lamin A splicing,BCR signal inh,Rango dissoc inh,KinaseGlo FLuc,Rango-impB inh,Tb PFK inh-1,others
Cc1ccc(C(=O)/C=C/Nc2ccccc2C(N)=O)cc1,-1%,u,u,11µM*,u,-6%,
C[N+]1(C)CCc2cc3c(cc2[C@H]1[C@@H]1OC(=O)c2c1ccc1c2OCO1)OCO3,-1%,2%,1%,-12%,u,-1%,
O=[N+]([O-])c1ccc2c(c1)C(c1ccccc1)=NCCN2,x,u,-5%,x,-1%,0%,
N#Cc1c(Cl)nc(Cl)c2c1CCN(Cc1ccccc1)C2,u,u,5.2µM*[inhibitor],1%,u,3%,
CN(C)c1ccc(/C=C/C=C2/C(=O)NC(=O)N(c3ccccc3)C2=O)cc1,u,16%,-5%,14µM*,1%,u,
CC(=NCc1cccnc1)c1c(O)n(-c2ccccc2C)c(=O)[nH]c1=O,-6%,23%,-12%,15%,3%,-9%,
COCOC1CCC2C3CCC4=CC(=O)CCC4=C3C=CC12C (centres undefined),x,x,21µM*,x,u,x,
COC(=O)C1=C(c2ccc3ccccc3c2)C[C@@H]2CC[C@H]1N2C(=O)N1CCCC1,x,u,-7%,x,-4%,3%,
CC(C)(C)c1cc(OC(=O)Cc2ccccc2)ccc1O,x,-17%,21%,x,-3%,0%,
CNC(=O)Oc1ccc(-c2cn3cc(C)ccc3n2)cc1,u,u,1%,u,3%,-26%,
CNC(=O)Oc1cccc(-c2cn3cc(Cl)ccc3n2)c1,u,u,-7%,10µM*,1%,-17%,
O=C1NC(=S)N(c2ccc(F)cc2)C(=O)/C1=C/c1ccco1,x,4%,x,x,x,6.7µM*,
O=C1NC(=S)N(c2ccc(F)cc2)C(=O)/C1=C\c1ccoc1,x,-21%,u,x,u,-17%,
Cc1nc2cc(-c3ccccc3)sc2c(=O)n1N,u,u,11%,2.2µM*,0%,-30%,
O=c1c2ccccc2nc(-c2ccccc2)n1-c1cccc(O)c1,x,28%,1%,-2%,5%,5%,
Cc1nn(C(C)(C)C)c(C)c1/C=N/OC(=O)Nc1ccc(Cl)c(Cl)c1,x,18%,12%,x,1%,17µM*,
Cc1ccc(NC(=O)Cn2c(=O)oc3ccccc32)cc1Cl,11%[46 µM],u,0%,x,-2%,-11%,
O=C(N/N=C/c1sc2ccccc2c1O)c1cccc2ccccc12,u,u,u,-1%,u,u,TbPFK ATP=-25%;Tb PFK inh-2=u
O=C1C(=O)c2ccccc2-c2ccccc21,u,u,-14%,17%,6%,6%,
Nc1ccc(O)c2c1C(=O)c1ccccc1C2=O,u,11%,-6%,13µM*,-7%,u,TbPFK ATP=11%;Tb PFK inh-2=-24%
O=C(O)COc1ccc(/C=N/NC(=O)c2ccc(-c3csc(Nc4ccc(Cl)cc4)n3)cc2)cc1,x,u,-15%,x,52µM*,u,TbPFK ATP=1.7µM*;Tb PFK inh-2=2.4µM*
CCc1nnc(NS(=O)(=O)c2ccc(NC(=S)NC(=O)/C=C/c3ccc(OC)cc3)cc2)s1,u,-4%,3%,8%,2%,u,TbPFK ATP=u;Tb PFK inh-2=u
COc1ccc(/C=C/C(=O)NC(=S)N2C[C@H]3C[C@H](C2)c2cccc(=O)n2C3)cc1,x,0%,-3%,x,2%,4%,
